Data on 1 compound can be found in paper PMC7252514 (Science (New York, N.Y.), 2019).

Protein sequences, listed by entry. Tags and fused reporters are not part of them. Residues count along the entry.
UniProt P36544, 23-229 L131G/Q139L/Y217F: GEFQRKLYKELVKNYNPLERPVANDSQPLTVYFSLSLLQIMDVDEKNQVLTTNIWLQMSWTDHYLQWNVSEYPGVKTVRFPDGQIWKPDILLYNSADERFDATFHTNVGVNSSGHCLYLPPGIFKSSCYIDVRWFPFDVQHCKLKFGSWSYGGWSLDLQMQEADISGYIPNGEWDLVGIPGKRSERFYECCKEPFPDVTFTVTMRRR

This test concerns the target α7^L131G,Q139L,Y217F-GlyR (PSAM^4-GlyR) (Homo sapiens, UniProt P36544, L131G/Q139L/Y217F). As to the kind of experiment: Competition binding by displacement of [3H]-ASEM at PSAM4-GlyR. A general note: Loss of bound radioactivity is the signal in a displacement assay; it reports binding, not function.

A word on the Ki: it is the equilibrium dissociation constant of an inhibitor or competing ligand from its target. Regarding `c1cnc2cc3c(cc2n1)[C@@H]1CNC[C@H]3C1` [varenicline], the Ki is 1.3 ± 0.4 nM.
